Experimental data taken from patent US9011830B2, “Poly(CPP-SA) anhydride as a reactive barrier matrix against percutaneous absorption of toxic chemicals” (dated 2015).
Where “and” joins values, the source holds several entries; their conditions need not be identical. Identical values can stand only once.

What was measured:
[1] = Ex vivo permeation of nitrofurazone through rat skin in Franz-type diffusion cells, with or without LMWP/HMWP film; details: untreated (control) rat skin
[2] = Solubility of nitrofurazone in the receptor phase; details: distilled water, acetonitrile and triethylamine buffer (79:20:1)
[3] = Ex vivo permeation of nitroglycerin through rat skin in Franz-type diffusion cells, with or without LMWP/HMWP film; details: untreated (control) rat skin
[4] = Ex vivo permeation of nicotine through rat skin in Franz-type diffusion cells, with or without LMWP/HMWP film; details: untreated (control) rat skin
[5] = nitrofurazone 200 μg/ml aqueous donor

**Q.** What does the source list for NC(=O)N/N=C/c1ccc([N+](=O)[O-])o1?
**A.** Flux ([1]; nitrofurazone 100 μg/ml aqueous solution): 5.11±1.39 μg/cm^2/hr; Flux [1, 5]: 11.4±1.6 μg/cm^2/hr and 11.44±1.62 μg/cm^2/hr; Lag-time [1, 5]: 3.5 ± 0.4 h and 3.53 ± 0.45 h; Q24: cumulative amount of nitrofurazone permeated after 24 hr [1, 5]: 205.41 ± 28.02 μg/cm^2; Lag time ([1]; nitrofurazone 100 g/ml (so in the source)): 4.17 ± 0.62 h; Flux ([1]; saturated nitrofurazone aqueous solution): 18.24±1.51 μg/cm^2/hr; Lag time ([1]; saturated nitrofurazone): 1.44 ± 0.56 h; Solubility of nitrofurazone in receptor phase [2]: 668 µg/mL

**Q.** With O=[N+]([O-])OCC(CO[N+](=O)[O-])O[N+](=O)[O-] as the compound, how does the Flux ([3]; nitroglycerin 200 μg/ml aqueous donor) read?
**A.** 21.42 ± 5.77 μg/cm^2/hr

**Q.** And the “Q10: cumulative amount of nitroglycerin permeated within 10 hrs” value ([3]; nitroglycerin 200 μg/ml)?
**A.** 110.20 ± 18.47 μg/cm^2

**Q.** What does the source list for CN1CCCC1c1cccnc1 (stereo not shown)?
**A.** Flux ([4]; nicotine 500 μg/ml aqueous donor, 32° C.): 40.00±6.97 μg/cm^2/hr; Q10: cumulative amount of nicotine permeated within 10 hrs ([4]; nicotine 500 μg/ml): 319.82 ± 52.64 g/cm^2; kp: permeability coefficient ([4]; nicotine 500 μg/ml): 8.00 ± 1.39 cm/hr * 10^2
